Test results published in patent US20160375006A1 (published 2016).

Amino acid sequences for entries named in this document (tags omitted). A change or cut given only in a name is not applied to a line headed by its entry.
UniProt P49840: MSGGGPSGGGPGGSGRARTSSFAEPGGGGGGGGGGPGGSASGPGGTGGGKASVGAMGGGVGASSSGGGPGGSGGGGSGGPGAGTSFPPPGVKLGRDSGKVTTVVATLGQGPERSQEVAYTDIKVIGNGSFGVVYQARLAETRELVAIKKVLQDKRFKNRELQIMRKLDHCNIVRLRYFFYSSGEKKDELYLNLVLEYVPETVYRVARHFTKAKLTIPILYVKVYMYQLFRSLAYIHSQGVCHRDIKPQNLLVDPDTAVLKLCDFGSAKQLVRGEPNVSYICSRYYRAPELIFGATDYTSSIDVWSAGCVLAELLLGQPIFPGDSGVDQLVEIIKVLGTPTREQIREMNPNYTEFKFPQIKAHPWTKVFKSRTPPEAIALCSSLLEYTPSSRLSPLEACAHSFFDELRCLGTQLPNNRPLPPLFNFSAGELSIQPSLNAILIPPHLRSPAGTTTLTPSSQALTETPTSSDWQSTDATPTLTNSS

Biological target: GSK3α (Homo sapiens, UniProt P49840)

Structure (SMILES): CC[C@@]1(c2ccccc2)C2=C(CC(C)(C)CC2=O)Nc2n[nH]cc21 [BRD0705]
- % Inhibition at 10 μM: 100.8%
